Read-outs that look alike come from different tables or passages of the source.

The subject of one series is Hale-Stoner mice. Put plainly: In vivo toxicology of free- and liposomal-hamycin in mice. To be noted: 90 days observation.
Another series has as its system human RBCs. Put plainly: In vitro toxicity: lysis of human red blood cells (hemoglobin release at 540 nm). To be noted: 37° C., 45 min.

Take hamycin: the “Maximal tolerated dose (MTD)” value with Hale-Stoner mice turned out to be 20 micrograms/mouse. Also, the Maximum solubility turned out to be 10000 µg/mL (DMFA), 20000 µg/mL (DMSO) and 100 µg/mL (methanol). Besides, the “Solubility in DMFA at 1 mg/ml” value (DMFA, 1 mg/ml) was “Yes”. The “Solubility in DMSO at 1 mg/ml” value (DMSO, 1 mg/ml) is “Yes”. In addition, where the note is “chloroform, 1 mg/ml”, the “Solubility in chloroform at 1 mg/ml” value was “Nil”. For the same substance, the “Solubility in ethanol at 1 mg/ml” value (ethanol, 1 mg/ml) is given as “Soluble”. In addition, the “Solubility in methanol at 1 mg/ml” value (methanol, 1 mg/ml) is “Partial”. Where the note is “water/saline, 1 mg/ml”, the “Solubility in water/saline at 1 mg/ml” value is “Nil”. Also, in the series on human RBCs (4.0 ug/ml), the “Lysis of human RBCs” value stood at 100%. For the same substance, in the series with human RBCs (0.4 to 4.0 ug/ml), the “Lysis of human RBCs, dose dependence” value was “linear increase in lysis”.

The record behind these values is patent publication US5032404A, “Lipsome-incorporation of polyenes” (priority 1989, dated 1991).
